Test results from patent US20240287043A1, “KETOAMIDE DERIVATIVE AND APPLICATION THEREOF” (GUANGDONG RAYNOVENT BIOTECH CO., LTD., priority 2021, published 2024).

System: MRC5 cells
Assay: Cytotoxicity assay in MRC5 cells without viral infection (CellTiter Glo)
Conditions: 5 days, no viral infection
Description: MRC5 cells were cultured in MEM (Sigma) culture medium supplemented with 10% fetal bovine serum (Excell), 1% double antibodies (Hyclone), 1% L-glutamine (Gibco) and 1% non-essential amino acids (Gibco). The MEM (Sigma) medium supplemented with 5% fetal bovine serum (Excell), 1% double antibodies (Hyclone), 1% L-glutamine (Gibco) and 1% non-essential amino acids (Gibco) was used as an experimental culture medium.
Cells were seeded into a 96-well microplate at a certain density (Table 2), and cultured overnight in a 5% CO2, 37° C. incubator. The next day, doubly diluted compounds, with 8 concentration points and duplicate wells, were added 50 μL per well. Then the diluted viruses were added to the cells at 100 TCID50 per well, 50 μL per well. A cell control (cells, without compound treatment or viral infection), a virus control (cells infected with viruses, without compound treatment) and a medium control (only medium) were set. The final volume of the culture medium for this experiment was 200 μL, and the final concentration of DMSO in the culture medium was 0.5%, respectively. […]
Nonlinear fitting analysis was performed by GraphPad Prism on the inhibition rate and cell viability of the compounds, and the half effective concentration (EC50) and half cytotoxic concentration (CC50) values of the compounds were calculated, with the experimental results shown in Table 3.

CC(C)(C)[C@H](NC(=O)C(F)(F)F)C(=O)N1CC2C(CCC23CC3)C1C(=O)N[C@@H](C[C@@H]1CCNC1=O)C(=O)C(=O)NC1CCCC1 (stereo partly shown)
CC50: > 10 µM
